From ChEMBL document CHEMBL1124320, “2,2-Difluoro-5-hexyne-1,4-diamine: a potent enzyme-activated inhibitor of ornithine decarboxylase” (J Med Chem, 1989) come the findings set out here.

For assay [1], the target named is T1, S-adenosylmethionine decarboxylase proenzyme (Homo sapiens) (UniProt P17707).
T1 sequence (whole entry): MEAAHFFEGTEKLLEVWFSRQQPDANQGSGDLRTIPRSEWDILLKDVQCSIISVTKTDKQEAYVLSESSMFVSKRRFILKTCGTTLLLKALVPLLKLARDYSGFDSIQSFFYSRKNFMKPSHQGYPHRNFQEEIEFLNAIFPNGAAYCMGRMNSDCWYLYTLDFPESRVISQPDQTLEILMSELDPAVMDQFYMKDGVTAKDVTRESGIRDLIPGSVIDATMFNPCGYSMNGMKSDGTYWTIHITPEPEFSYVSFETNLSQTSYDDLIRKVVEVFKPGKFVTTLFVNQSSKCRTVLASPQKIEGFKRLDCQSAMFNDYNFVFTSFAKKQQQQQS

Assay [2] concerns the target T2, Ornithine decarboxylase (Rattus norvegicus) (UniProt P09057).
T2 sequence (whole entry): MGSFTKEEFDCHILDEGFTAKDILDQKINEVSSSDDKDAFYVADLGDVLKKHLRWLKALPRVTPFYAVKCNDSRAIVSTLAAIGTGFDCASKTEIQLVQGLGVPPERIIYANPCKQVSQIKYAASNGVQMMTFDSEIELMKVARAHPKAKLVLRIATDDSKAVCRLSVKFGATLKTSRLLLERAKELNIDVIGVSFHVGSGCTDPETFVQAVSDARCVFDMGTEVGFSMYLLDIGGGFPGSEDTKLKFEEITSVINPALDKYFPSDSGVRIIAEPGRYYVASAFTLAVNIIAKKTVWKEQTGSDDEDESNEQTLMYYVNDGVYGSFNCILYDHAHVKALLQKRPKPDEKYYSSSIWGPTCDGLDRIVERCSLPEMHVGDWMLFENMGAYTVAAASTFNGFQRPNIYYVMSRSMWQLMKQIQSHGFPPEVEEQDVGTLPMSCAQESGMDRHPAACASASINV
The following applies: 5 uM.

Assay [3] concerns the target T2, Ornithine decarboxylase (Rattus norvegicus). The conditions noted are these: 5 uM. This is another data set of the same source.
Assay [4] shares this target. The following applies: 5 uM. This is another data set of the same source.

Molecules are shown by their SMILES.

In assay [1], `C#CC(N)CC(F)(F)CN` (centres undefined) yielded a Ka of 1. Also, the results for the Inactivation time in assay [2], in assay [3] and in assay [4] were 85 min, above 200 min and 9 min, respectively.
